Patent US12552694B2, “Use of trivalent metals to enhance aquatic pesticide efficacy, surface water, and sediment quality while minimizing risk to aquatic biota” (SePRO Corporation, priority 2022, dated 2026)

Test: Example 1: capacity of additives to bind dissolved La and Ce (ICP-OES)
Format: physicochemical
Conditions: test sample: La/Ce stock in 50 mL deionized water with 90-110 mg additive

OCCN(CCO)CCO
pH: 9.5
